Data published in patent US20240189318A1, “THERAPEUTIC REGIMENS OF AN INHIBITOR OF THE ENZYMATIC ACTIVITY OF BRG1 AND BRM” (FOGHORN THERAPEUTICS INC., priority 2021, published 2024).

Test system: cultured human hepatocytes
Assay: Cytotoxicity to cultured human hepatocytes (morphology, LDH release)
Details: 72 hours, first study 0.05 to 30 μM, all donors

## COC[C@H](NC(=O)c1ccn(S(C)(=O)=O)c1)C(=O)Nc1nc(-c2cccc(N3C[C@@H](C)O[C@@H](C)C3)n2)cs1 [compound of formula (I), N-((S)-1-((4-(6-(cis-2,6-dimethylmorpholino)pyridin-2-yl)thiazol-2-yl)amino)-3-methoxy-1-oxopropan-2-yl)-1-(methylsulfonyl)-1H-pyrrole-3-carboxamide]
  concentrations that appeared cytotoxic to cultured human hepatocytes (morphology changes): ≥ 0.5 μM
